Values of other authors, collected in PMC5618561 (International Journal of Molecular Sciences, 2017).

Details: patients with epilepsy; corresponds to 40–100 mg/L; cited from earlier work

## CCCC(CCC)C(=O)O [VPA, Valproic acid]
  therapeutic blood levels (concentration range): 277 to 693 µM
